Publication PMC3799725, “Detection of Active Matriptase Using a Biotinylated Chloromethyl Ketone Peptide” (PLoS ONE, 2013)

Tests used:
[1] = aqueous solution, under the experimental conditions described (20 mM Hepes pH 7.4, 140 mM NaCl, 0.1% BSA, 37°C); roughly estimated, data not shown
matriptase SPD = assay: Chromogenic assay: inhibition of matriptase SPD cleavage of S2288; settings: 0.2 nM SPD, 405 nm, representative of 3 independent experiments

Substance: biotin-Arg-Gln-Arg-Arg-chloromethyl ketone
- half-life [1]: ~25 min
- inhibition of matriptase SPD after longer pre-incubation of inhibitor (matriptase SPD; 5 nM inhibitor pre-incubated 120 min or longer (120 and 180 min) at 37°C, Hepes pH 7.4, S2288 300 µM): gradually reduces the efficiency of biotin-RQRR-CMK inhibition
- inhibition of matriptase SPD cleavage of chromogenic substrate (matriptase SPD; 50 µM inhibitor, no pre-incubation, 20 mM Hepes pH 7.4, 140 mM NaCl, 0.1% BSA, 10 min at 37°C, S2288 300 µM final): unable to cleave the chromogenic substrate
